# Assay outcomes from PubChem.
# hERG WT inh: inhibitors of human wildtype KCNH2 potassium channel; U2OS, BacMam KCNH2, thallium flux FluxOr; active compounds read low; AID 720551; activity change, % at 1.84 µM; Q12809; actives 0.37% (n = 340,000);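 active = maximum activity change below -70%; inconclusive = maximum activity change between -70% and -50%; inactive = maximum activity change above -50%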
#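 U2OS cells were transduced with wild-type KCNH2 virus (2.03 x 10^8 / mL) for 4 h at room temperature, then cultured overnight at 37 C. Thallium flux was read with FluxOr dye. Rate constants were normalized to DMSO controls.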
# Rango-impB inh: prevents formation of the Rango-importin beta complex; Q14974; Rango CFP/YFP FRET sensor + importin beta, 45 min; Potency, µM (highest dose often 92.2 µM); actives 0.031% (n = 340,000); AID 540263; note: nearly all actives have a fitted effect of over 15% in size
#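 Inhibition scored from the CFP 486 nm/YFP 530 nm FRET ratio 45 min after adding 0.125 microM importin beta to 50 nM Rango biosensor preincubated 5 min with compound (room temperature, PBS with DTT, Tween-20, BSA). No-importin wells as positive control.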
# Rango dissoc inh: inhibition of RanGTP-driven Rango-importin beta dissociation; actives 0.071% (n = 340,000); AID 540253; Potency, µM (titrated, usually from 46.1 µM); Biochemical FRET Rango-importin beta, RanGTP-induced dissociation; O95149+P62826; note: nearly all actives have a fitted effect of over 45% in size
#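 FRET read at 45 min, room temperature: inhibitors block the CFP/YFP signal rise when RanGTP (0.6 uM Ran, 2 mM GTP, 0.2 uM RCC1) frees Rango (0.1 uM) from importin beta (0.25 uM). Pre-read after 5 min compound exposure flags interference.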
# KCNH2 3.1 block: inhibitors of human KCNH2 3.1 potassium channel isoform; U2OS KCNH2 3.1, thallium flux FluxOr; active compounds read low; activity change, % (tested at about 1.8 µM); actives 0.95% (n = 340,000); AID 720553;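 active = maximum activity change below -70%; inconclusive = maximum activity change from -70% to -50%; inactive = maximum activity change above -50%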;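 note: thallium influx rate constant from kinetic fluorescence after stimulation buffer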
#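 Kinetic fluorescence (2 min after stimulation buffer) measures Tl+ influx through KCNH2 3.1 expressed by viral transduction in U2OS cells; the rate constant is normalized against DMSO controls serving as positive and negative references.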
# Numbers stand for hits; – = inactive; ? = inconclusive; · = no result. Hits are enriched below; roughly 1.3% of the tested compounds scored in any of these assays. Unless noted, calls come from the whole dose curve.
SMILES,hERG WT inh,Rango-impB inh,Rango dissoc inh,KCNH2 3.1 block
Cc1ccc(C(=O)N/C(=C\c2ccc(F)cc2)C(=O)NCc2ccncc2)cc1,–,–,–,-90
Cc1ccc(C(=O)N/C(=C\c2cccc([N+](=O)[O-])c2)C(=O)NCc2ccncc2)cc1,–,–,–,-86
Cc1ccc(NS(=O)(=O)c2ccc(C)c(NC(=O)c3ccc(S(=O)(=O)N4CCCCCC4)cc3)c2)c(C)c1,–,·,·,–
CN(C(=O)CCN1C(=O)S/C(=C\c2ccccc2)C1=O)C1CCS(=O)(=O)C1 (centres undefined),–,–,–,–
O=C(N/N=C/C=C/c1ccc([N+](=O)[O-])cc1)c1cccs1,–,26µM,–,–
C=C(C)c1cccc(C(C)(C)NC(=O)N2CCN(C(=O)OCC)CC2)c1,–,·,·,-71
COc1ccccc1-n1cnc2cc(C(=O)NC3CCCC3)ccc21,–,–,–,-91
CCOCCCNC(=O)c1ccc2c(c1)ncn2-c1ccccc1OC,–,–,–,–
CCOc1ccc(NS(=O)(=O)c2cc(C(=O)NCCN3CCOCC3)ccc2C)cc1,–,–,–,–
CCC(Cc1ccccc1)NC(=O)Cn1ncc2ccsc2c1=O (centres undefined),–,–,–,-110
CCC(Cc1ccccc1)NC(=O)Cn1cccc1C(=O)c1ccccc1 (centres undefined),–,–,–,–
CC(/C=N/NC(=O)c1ccc(CN2c3cccc4cccc(c34)S2(=O)=O)cc1)c1ccccc1 (centres undefined),–,–,–,-84
CCCS(=O)(=O)c1nc(S(=O)(=O)c2ccc(C)cc2)c(N2CCCC(C)C2)s1 (centres undefined),–,–,–,–
c1cc2nncn2nc1N1CCCC1,–,–,–,–
c1ccc(N2CCN(c3ccc4nncn4n3)CC2)nc1,–,–,–,-184
COc1ccc(-c2sc3cc4c(cc3c2C#Cc2ccc(N)cc2)OCO4)cc1,·,?,–,·
Cc1ccc(C(=O)NCC(c2ccco2)N2CCCCC2)s1 (centres undefined),–,–,–,-71
COc1cc(NC(=O)C(C)N2CCN(C(=O)C3CC3)CC2)cc(OC)c1 (centres undefined),–,–,–,–
CC(C)(C)N1C(=O)[C@H]2[C@@H](c3ccc(Br)cc3)N3C(=O)N(c4cccc(F)c4)C(=O)[C@@]3(Cc3ccccc3)[C@H]2C1=O,–,–,–,–
COc1ccc([C@@H]2[C@@H]3C(=O)N(C(C)(C)C)C(=O)[C@@H]3[C@]3(Cc4ccccc4)C(=O)N(c4cccc(F)c4)C(=O)N23)cc1,–,–,–,-74
COc1ccc(N2C(=O)CN=C2Nc2nc(C)cc(C)n2)cc1OC,–,–,–,-149
CCOc1ccc2c(c1)C(C)=CC(C)(C)N2C(=O)Nc1ccccc1F,–,–,–,–
CCNC(=O)N1c2ccc(OCC)cc2C(C)=CC1(C)C,–,?,2.1µM,–
COc1ccc(NC(=O)C(c2ccccc2)N2CCN(c3ccccn3)CC2)cc1Cl (centres undefined),–,–,–,-109
CCn1ncc(C(=O)Nc2ccccc2C)c1C,–,–,–,-95
SMILES,hERG WT inh,Rango-impB inh,Rango dissoc inh,KCNH2 3.1 block
CCn1ncc(C(=O)Nc2ccc(F)cc2)c1C,–,–,–,–
O=C(NCC(=O)N(c1cccnc1)C(C(=O)NC1CCCCC1)c1ccccc1F)c1ccco1 (centres undefined),-149,–,–,-193
CC(=O)Nc1ccc(N(C(=O)CNC(=O)c2ccco2)C(C(=O)NC2CCCC2)c2ccco2)cc1 (centres undefined),–,?,–,–
Cc1ccc(N(C(=O)CNC(=O)c2ccco2)C(C(=O)NC2CCCC2)c2cccnc2)cc1C (centres undefined),-189,–,–,–
CC(=O)Nc1ccc(N(C(=O)CNC(=O)c2ccco2)C(C(=O)NCc2ccco2)c2ccccc2F)cc1 (centres undefined),–,–,–,-111
COc1ccc(CNC(=O)COC(=O)c2[nH]c(C)c(C(C)=O)c2C)cc1OC,–,–,–,–
O=C(c1ccc(C(F)(F)F)cc1)C1CCCN(Cc2cccn2-c2ncccn2)C1 (centres undefined),-112,–,–,-111
O=C(c1cccc(C(F)(F)F)c1)C1CCCN(Cc2cccn2-c2ncccn2)C1 (centres undefined),-72,–,–,–
O=C(c1ccc(C(F)(F)F)cc1)C1CCCN(C(=O)c2cnccn2)C1 (centres undefined),–,–,–,–
CSc1ccc(C(=O)C2CCCN(Cc3cccc4nccnc34)C2)cc1 (centres undefined),?,–,–,-108
CC(OC(=O)/C(C#N)=C/c1ccc(N(C)C)cc1)C(=O)N(C)Cc1ccccc1 (centres undefined),–,?,?,–
CCN(C[C@H]1N[C@@](C)(C(=O)OC)[C@H]2C(=O)N(C)C(=O)[C@@H]12)S(=O)(=O)c1ccc(OC)cc1,–,–,–,–
O=C(CC1SC(N2CCCC2)=NC1=O)Nc1ccc(C(=O)NCc2ccc(F)cc2)cc1 (centres undefined),–,–,–,–
CCOc1ccc(S(=O)(=O)N2CCCCC2)cc1NC(=O)CCNC(=O)c1ccco1,–,–,–,–
CCN(CC)CCOC(=O)C(Cc1ccco1)Cc1cccc2ccccc12 (centres undefined),–,–,–,-74
Cc1nc2cc(NC(=O)Nc3cccc([N+](=O)[O-])c3)ccc2n1C,–,–,–,-75
CCc1c(C)c2cc(Cl)c(O)c(CN(C)C)c2oc1=O,–,?,?,-88
Cc1c(C)c2cc(Cl)c(O)c(CN(C)C)c2oc1=O,–,?,?,–
O=C(Nc1cc(S(=O)(=O)N2CCOCC2)ccc1Cl)c1cc([N+](=O)[O-])ccc1Cl,–,–,–,–
CCOC(=O)Cn1nnc(-c2ccc([N+](=O)[O-])cc2)n1,–,–,–,?
CCOC(=O)C(C)(C)n1nnc(-c2ccc([N+](=O)[O-])cc2)n1,–,–,–,-83
COc1ccc2c(c1)CCCC21NC(=O)N(CC(=O)N2CC(C)OC(C)C2)C1=O (centres undefined),–,–,–,–
CCOC(=O)c1cccc(C2=CC(=O)C[C@H](c3ccc(OC)cc3)C2)c1,–,–,–,–
Cc1cc(C(=O)O)cc(S(=O)(=O)Nc2c(C)nn(C)c2C)c1C,–,–,–,–
COc1ccc(OC)c(C(=O)NC(CC(N)=O)c2ccc(NCC3CC3)c([N+](=O)[O-])c2)c1 (centres undefined),–,–,–,-121
O=C(Cc1ccc(-n2cccc2)cc1)NCc1cccs1,–,–,–,-89
CCn1c(-c2cc(-c3ccccc3)sc2N)n[nH]c1=S,–,?,–,–
CCn1c(-c2cc(-c3cccc(OC)c3)nc3ccccc23)n[nH]c1=S,–,–,–,-78
